# Source: PubChem BioAssay AID873 (PCMD, 2007)
# By UniProt entry, the sequences of proteins in these tests, tags left out. Residues count along the entry.
# UniProt Q9Y337, 67-293 limits assumed: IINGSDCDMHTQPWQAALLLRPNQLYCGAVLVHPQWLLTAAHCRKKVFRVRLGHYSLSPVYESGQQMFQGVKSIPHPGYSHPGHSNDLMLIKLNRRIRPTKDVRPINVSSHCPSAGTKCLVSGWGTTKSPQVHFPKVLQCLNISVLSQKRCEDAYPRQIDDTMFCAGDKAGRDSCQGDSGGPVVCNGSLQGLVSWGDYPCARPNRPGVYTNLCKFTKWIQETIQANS
# The entries are a selection whose mix differs from that of the whole data set. Active and inactive are the calls of the source.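 Rule for the calls: active = inhibition of 40% or more; inactive = the rest.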
# Biological target: Kallikrein-5 (Homo sapiens) (UniProt Q9Y337)
# Assay: human KLK5 protease inhibitors, primary screen, biochemical, 1536-well (AID 873);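 note: 0% = enzyme controls without compound and 100% = no-enzyme blanks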
# Settings: recombinant hK5, fluorogenic AMC substrate cleavage; at 5 µM; stronger effect = higher value
row,Structure (SMILES),inhibition
1,c1nnnn1CCn1cnnn1,inactive: -3.81%
